Antibody variant affinities, Ab-14 light chain, assay 1

Antigen: PDVDLGDISGINAS, a 14-residue peptide of the SARS-CoV-2 spike HR2 region.

Parent scFv Ab-14: VH joined to VL by a 15-residue (Gly4Ser)3 linker. Changes lie in the light chain CDRs alone.
VH: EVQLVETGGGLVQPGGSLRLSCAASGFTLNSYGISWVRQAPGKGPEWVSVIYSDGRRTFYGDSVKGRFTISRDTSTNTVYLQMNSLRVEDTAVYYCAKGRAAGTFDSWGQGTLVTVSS
VL: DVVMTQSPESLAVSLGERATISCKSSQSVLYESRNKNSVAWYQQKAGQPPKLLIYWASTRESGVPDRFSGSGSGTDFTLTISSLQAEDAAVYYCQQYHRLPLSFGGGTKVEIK

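Phage display of a naive human antibody library on the peptide gave the parent. AAYL50 was designed without a model: most single CDR substitutions and a random sample of double and triple ones. In AlphaSeq, yeast of one mating type display the scFv and yeast of the other type display the target. Pairs that bind mate more often; barcode pairs of the diploids are counted by sequencing. Each replicate has its own calibration line, from reference interactions of the BCL2 family. Mating was done three times.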

The parent's light chain CDRs are KSSQSVLYESRNKNSVA, WASTRES, QQYHRLPLS; each variant's own CDRs replace them letter for letter.
Affinities are written as log10 Kd with Kd in nM; a lower number is a better binder.
Averages over replicates are reported, and they cover detected replicates only.
A pair that was not seen in any replicate is written "not detected"; this usually means weak binding, but a binder can also be missed.

CDR-L1	CDR-L2	CDR-L3	mean log10 Kd (nM)	detected	signal with controls
KSSQSVLYESRNKNHVA	WASTRES	QNYHRLPLS	not detected	0/3	0/9
KSSQSVLYERRNKNSVA	WFSTRES	QQYHCLPLS	4.13	2/3	4/9
KSSQSVLYESRNDNSVA	WASTRDS	QQYHRLPLS	1.01	3/3	5/9
KSSQSVLYESRNKNSVA	WASTRES	LQYIRLELS	not detected	0/3	0/9
KSSQSVLYESRNHNSVA	WASTRES	QQYQRLPFS	0.91	3/3	1/9
YSSQSVLYESRNKNSVI	WASTRYS	QQYHRLPLS	2.91	1/3	0/9
KSSQSVLYESRNKNSVA	WASTRES	AQYHRDPLS	3.03	1/3	1/9
KSSQSVQYESYNKMSVA	WASTRES	QQYHRLPLS	2.62	3/3	1/9
KSSQSVLYDSRNKNSVA	WATTRES	QQYYRLPLS	0.58	3/3	0/9
KSSESVLYESRNKNSVA	WAVTRES	QQKHRLPLS	1.27	3/3	0/9
KSSQSVLYESRNKNSVH	WASTRES	QQYHRLALS	6.11	1/3	4/9
KSSQSVIYESRNKNGVA	WASTRES	QQYHRLPLS	2.61	3/3	3/9
KESQSVLYESRNKNSVA	WASTREQ	QQAHRLPLS	not detected	0/3	0/9
KSSQFKLYESRNKNSLA	WASTRES	QQYHRLPLS	not detected	0/3	0/9
HKSQSVLYESRNKNSVA	WASTRPS	QQYHRLPLS	2.30	3/3	4/9
KSTQSVLGESRNKNSVA	WASTRES	QQSHRLPLS	2.50	3/3	3/9
KSSQSVLWESRNKNSVA	WANTYES	QQYHRLPLS	4.59	2/3	4/9
KSSQSVLYESLNKNSVA	WAETQES	QQYHRLPLS	1.82	3/3	2/9
KSSQSVLYEPRNKNSVF	VASTRES	QQYHRLPLS	4.65	1/3	0/9
KSSQSVNYESRNKNSVA	WASTRES	QQYERLPLV	1.13	3/3	3/9
KSSQSVLYESRNKNSVA	HASTRES	QQYHRLFLS	1.55	3/3	1/9
KSSQSQLYESRNGNSVA	WASTRES	QQYHRLPLS	0.80	3/3	0/9
QSDQSVLYESRNKNSVA	WASTRES	QNYHRLPLS	not detected	0/3	2/9
KSSQSVLYESFNKNFVA	WASTRES	QQYHRLPLS	4.79	1/3	0/9
KSSQSVLHESRNKDSVA	WASTRES	QQYHRLPLL	3.26	1/3	1/9
KSSQSVLYEVRNKNSVA	WRSTRES	QWYHRLPLS	3.44	1/3	1/9
KSSQNVLYESCCKNSVA	WASTRES	QQYHRLPLS	0.95	3/3	5/9
KSSQSVLYEPRNKWSVA	WASTRES	QQYHCLPLS	0.74	3/3	2/9
KSGQSVLYESRNKNSVA	AASTRES	QSYHRLPLS	not detected	0/3	0/9
KSSQSVLYESRNKNSVA	RASTRES	EQYHRLPES	1.17	3/3	0/9
KSSQSVEYESRNKNSVA	WRLTRES	QQYHRLPLS	not detected	0/3	0/9
KSSQSVLYESRNKNSVA	IASMRES	QQYHRLPLS	not detected	0/3	1/9
KSSQSVLYESRNGASVA	WASTRES	QQYSRLPLS	0.83	3/3	0/9
KSSQSVLYESRNKNSVA	WASTRES	QQGHPHPLS	not detected	0/3	0/9
KSSQSVLYESRSSNSVA	WASTRGS	QQYHRLPLS	not detected	0/3	0/9
KASQSVLYESRNKNSGA	WASTRES	QQYHRLPVS	2.89	1/3	0/9

Continued, with the values leading:

mean log10 Kd (nM)	detected	signal with controls	CDR-L1	CDR-L2	CDR-L3
1.47	2/3	0/9	KSSQSVLYESRNKNSVA	TAGTRIS	QQYHRLPLS
2.48	2/3	0/9	KSSQSVLYESRNKNSVA	WASTKQS	QQYHVLPLS
not detected	0/3	0/9	KSSQSVLYESRNKNSVA	WASPRES	QQYHRLPIT
not detected	0/3	0/9	KSSQSSLRESRNKNSVA	WASTRES	QKYHRLPLS
1.48	3/3	5/9	KSSQSVPYESRNKNSVA	WASTREC	QQWHRLPLS
2.12	3/3	0/9	KSSQSVLYESRVKCSVA	WASTRES	QQYHRLPLS
0.21	3/3	1/9	KMSWSVLYESRNKNSVA	WASTRES	QQYVRLPLS
4.69	2/3	3/9	KSSQSVLYESRNKHSVA	WAPTRES	KQYHRLPLS
2.53	3/3	4/9	FSSQSVLYEWRNKNSVA	WASTRES	QQYHRLPLS
not detected	0/3	4/9	KSSQSVLYESRNKPWVA	WASTRHS	QQYHRLPLS
2.46	3/3	3/9	KSSQSVLYESRNKNSVA	WASTRES	QQYHELPLL
not detected	0/3	2/9	KSSQWVLYESRNKHSVA	WASTRES	QQYHRLKLS
4.35	1/3	7/9	KSSQSVLYLSRNKNSVP	WASTRES	QQYHRHPLS
4.01	1/3	2/9	KSSQSVLYESRNMNSVQ	WISTRES	QQYHRLPLS
1.26	3/3	1/9	KSSQSVLYESRNKNNVA	WASKRES	QQYHRLYLS
3.01	1/3	1/9	KSSQSVLYESRNKNSRA	WASTRES	QQAHRLPLA
not detected	0/3	0/9	KSSQSVLYESRNKNSVA	WASGRAS	KQYHRLPLS
1.67	3/3	1/9	MSSQSVLYESRNLNSVA	WASTRES	QQYHALPLS
4.44	1/3	2/9	KSSESVLYESRNKNSVA	WLSTRES	VQYHRLPLS
not detected	0/3	1/9	KSSQSVLYESRNKNSVN	WASTIES	QQYHSLPLS
not detected	0/3	4/9	KSSQSVLYESRNVNSVA	WASTRES	WQYHRLPLS
4.35	1/3	2/9	KSPQSVLYEDRNKNSVA	WASTRES	QQYHRQPLS
not detected	0/3	1/9	KSSQSVLNESRNKNSVA	WASTREH	QQYHRNPLS
1.28	3/3	3/9	KSSQSVLYESFNKNSVA	WASLRES	QQYHRLPLN
3.92	1/3	0/9	KSYQSVLYESRNKNSVA	WPDTRES	QQYHRLPLS
not detected	0/3	1/9	KSSQSVLYESRNKNSVA	WFSTRDS	QQYHRLPLL
2.44	3/3	1/9	YSSQSVYYESRNKNSVA	WASTRES	QSYHRLPLS
4.49	1/3	1/9	KSSQSVLYDSRNKNSVG	WASTRES	QQYHRLPLS
4.05	1/3	5/9	KSSQSVLYQSRNKNLVA	WASTRES	QQYHRLLLS
2.81	3/3	1/9	KSSQSVLYESRNKNSVA	WASDREW	QQYHRLWLS
1.13	3/3	5/9	KSSQSVQYGSRNKNSVA	WASTRES	QQYHRLPLS
0.83	3/3	2/9	KSSQSVLLESRNKNSVA	DARTRES	QQYHRLPLS
1.71	3/3	0/9	NSSQSVLYESRNKDSVA	WASTREP	QQYHRLPLS
0.11	3/3	1/9	KVSQSVLYETRNKNSVA	WASTREL	QQYHRLPLS
not detected	0/3	2/9	KSSQSVLYESRNKNPVA	WASTYES	YQYHRLPLS
1.01	3/3	0/9	KSSQSVLYESRNKNSVA	WASTRES	QHYHRLPLF
not detected	0/3	1/9	KSPPSVLYESRNKNSVA	WASTRES	QQYHRLVLS

The 12 strongest on average among those seen in every replicate, once more:

{"CDR-L1": "KVSQSVLYETRNKNSVA", "CDR-L2": "WASTREL", "CDR-L3": "QQYHRLPLS", "mean log10 Kd (nM)": "0.11", "detected": "3/3", "signal with controls": "1/9"}
{"CDR-L1": "KMSWSVLYESRNKNSVA", "CDR-L2": "WASTRES", "CDR-L3": "QQYVRLPLS", "mean log10 Kd (nM)": "0.21", "detected": "3/3", "signal with controls": "1/9"}
{"CDR-L1": "KSSQSVLYDSRNKNSVA", "CDR-L2": "WATTRES", "CDR-L3": "QQYYRLPLS", "mean log10 Kd (nM)": "0.58", "detected": "3/3", "signal with controls": "0/9"}
{"CDR-L1": "KSSQSVLYEPRNKWSVA", "CDR-L2": "WASTRES", "CDR-L3": "QQYHCLPLS", "mean log10 Kd (nM)": "0.74", "detected": "3/3", "signal with controls": "2/9"}
{"CDR-L1": "KSSQSQLYESRNGNSVA", "CDR-L2": "WASTRES", "CDR-L3": "QQYHRLPLS", "mean log10 Kd (nM)": "0.80", "detected": "3/3", "signal with controls": "0/9"}
{"CDR-L1": "KSSQSVLYESRNGASVA", "CDR-L2": "WASTRES", "CDR-L3": "QQYSRLPLS", "mean log10 Kd (nM)": "0.83", "detected": "3/3", "signal with controls": "0/9"}
{"CDR-L1": "KSSQSVLLESRNKNSVA", "CDR-L2": "DARTRES", "CDR-L3": "QQYHRLPLS", "mean log10 Kd (nM)": "0.83", "detected": "3/3", "signal with controls": "2/9"}
{"CDR-L1": "KSSQSVLYESRNHNSVA", "CDR-L2": "WASTRES", "CDR-L3": "QQYQRLPFS", "mean log10 Kd (nM)": "0.91", "detected": "3/3", "signal with controls": "1/9"}
{"CDR-L1": "KSSQNVLYESCCKNSVA", "CDR-L2": "WASTRES", "CDR-L3": "QQYHRLPLS", "mean log10 Kd (nM)": "0.95", "detected": "3/3", "signal with controls": "5/9"}
{"CDR-L1": "KSSQSVLYESRNKNSVA", "CDR-L2": "WASTRES", "CDR-L3": "QHYHRLPLF", "mean log10 Kd (nM)": "1.01", "detected": "3/3", "signal with controls": "0/9"}
{"CDR-L1": "KSSQSVLYESRNDNSVA", "CDR-L2": "WASTRDS", "CDR-L3": "QQYHRLPLS", "mean log10 Kd (nM)": "1.01", "detected": "3/3", "signal with controls": "5/9"}
{"CDR-L1": "KSSQSVNYESRNKNSVA", "CDR-L2": "WASTRES", "CDR-L3": "QQYERLPLV", "mean log10 Kd (nM)": "1.13", "detected": "3/3", "signal with controls": "3/9"}

In this assay the parent's reference entry averaged 0.65; its copy inside this library read 1.68.
As a blank, each scFv also met three strains without target: over library AAYL50, 18% of these pairings were detected, typically at 4.19 and seldom below 2.99. Also given: how often the same scFv was detected with the empty control strains.

Data: MIT Lincoln Laboratory AlphaSeq set, Engelhart et al. 2022, doi:10.1038/s41597-022-01779-4, as distributed in FLAb.